pIC50: −log10 of the molar value.

By UniProt entry, the sequences of proteins in these tests, tags left out.
UniProt O43613, whole entry: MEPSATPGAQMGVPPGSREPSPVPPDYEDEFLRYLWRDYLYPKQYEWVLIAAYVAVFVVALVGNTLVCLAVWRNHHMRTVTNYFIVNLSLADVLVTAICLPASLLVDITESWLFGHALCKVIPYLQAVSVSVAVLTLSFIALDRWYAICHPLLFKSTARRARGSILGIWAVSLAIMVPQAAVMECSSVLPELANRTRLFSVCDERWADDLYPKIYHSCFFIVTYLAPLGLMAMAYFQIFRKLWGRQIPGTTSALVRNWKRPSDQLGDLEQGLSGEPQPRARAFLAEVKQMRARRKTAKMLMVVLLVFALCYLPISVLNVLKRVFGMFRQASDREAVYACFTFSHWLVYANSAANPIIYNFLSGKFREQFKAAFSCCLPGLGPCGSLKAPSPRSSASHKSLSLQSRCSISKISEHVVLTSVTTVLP

This test has as its target OX1R (Homo sapiens, UniProt O43613). The experiment in a line: FLIPR Tetra calcium assay, OX1R inhibition. The test is classed as cell-based.

Turning to `Cc1ccc(-n2nccn2)c(C(=O)N2CCN(c3nc4cc(Cl)ccc4o3)CC[C@H]2C)c1` [Suvorexant], the pIC50 – broadly, the negative decadic logarithm of the IC50, by convention in mol/L – was 6.85.
